Assay [1] concerns the target T1, Mu-type opioid receptor (Homo sapiens, UniProt P35372). The assay can be described thus: Antagonist activity at human MOR expressed in CHO-FlpIn cell membranes assessed as inhibition of DAMGO-induced ERK phosphorylation after 30 mins by Gaddum-Schild plot analysis.
Assay [2] addresses Kappa-type opioid receptor (Homo sapiens, UniProt P41145). Briefly: Antagonist activity at human KOR expressed in CHO-FlpIn cell membranes assessed as inhibition of ICI199441-induced ERK phosphorylation after 30 mins by Gaddum-Schild plot analysis.
Assay [3] deals with Delta-type opioid receptor (Homo sapiens, UniProt P41143). The assay can be described thus: Antagonist activity at human DOR expressed in CHO-FlpIn cell membranes assessed as inhibition of SNC80-induced ERK phosphorylation after 30 mins by Gaddum-Schild plot analysis.
Assay [4] addresses T1, Mu-type opioid receptor. The assay can be described thus: Displacement of [3H]diprenorphine from human MOR expressed in CHO-FlpIn cell membranes after 1 hr by liquid scintillation counting analysis. (In general: Loss of bound radioactivity is the signal in a displacement assay; it reports binding, not function.)

The chains behind the UniProt entries cited, without tags or fusion partners.
UniProt P35372, whole entry: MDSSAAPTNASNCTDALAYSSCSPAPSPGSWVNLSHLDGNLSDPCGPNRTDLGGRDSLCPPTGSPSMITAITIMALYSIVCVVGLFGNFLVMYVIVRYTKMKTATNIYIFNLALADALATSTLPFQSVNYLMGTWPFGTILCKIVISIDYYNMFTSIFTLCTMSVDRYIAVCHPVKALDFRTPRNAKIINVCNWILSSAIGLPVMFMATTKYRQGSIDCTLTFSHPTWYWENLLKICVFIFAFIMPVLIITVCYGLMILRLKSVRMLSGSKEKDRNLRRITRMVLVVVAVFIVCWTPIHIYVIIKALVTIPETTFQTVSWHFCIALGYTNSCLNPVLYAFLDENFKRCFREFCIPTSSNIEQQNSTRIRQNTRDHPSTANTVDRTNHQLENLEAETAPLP
UniProt P41145, whole entry: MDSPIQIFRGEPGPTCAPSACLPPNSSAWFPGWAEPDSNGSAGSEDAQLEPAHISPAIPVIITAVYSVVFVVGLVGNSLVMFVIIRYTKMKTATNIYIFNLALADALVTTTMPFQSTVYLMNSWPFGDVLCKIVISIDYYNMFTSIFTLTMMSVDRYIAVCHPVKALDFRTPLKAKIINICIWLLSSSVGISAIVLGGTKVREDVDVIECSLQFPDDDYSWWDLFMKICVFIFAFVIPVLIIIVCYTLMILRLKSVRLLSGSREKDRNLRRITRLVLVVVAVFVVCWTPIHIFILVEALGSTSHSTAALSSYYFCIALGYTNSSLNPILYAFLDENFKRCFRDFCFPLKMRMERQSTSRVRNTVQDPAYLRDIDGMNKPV
UniProt P41143, whole entry: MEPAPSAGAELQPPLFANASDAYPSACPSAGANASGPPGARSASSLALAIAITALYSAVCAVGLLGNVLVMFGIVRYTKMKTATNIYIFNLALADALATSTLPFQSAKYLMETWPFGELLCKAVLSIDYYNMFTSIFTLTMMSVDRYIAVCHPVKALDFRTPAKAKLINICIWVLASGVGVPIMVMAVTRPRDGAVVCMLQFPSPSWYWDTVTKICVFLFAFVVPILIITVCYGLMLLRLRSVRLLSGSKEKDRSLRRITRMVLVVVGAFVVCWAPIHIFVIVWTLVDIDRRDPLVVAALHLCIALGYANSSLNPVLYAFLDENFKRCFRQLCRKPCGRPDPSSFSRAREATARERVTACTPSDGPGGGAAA

Where only a bound is given, the exact number is not on record here.

Turning to `COc1nnc(OCCCC(=O)NCCCCCCNC(=O)[C@H]2C[C@@]34CC[C@]2(OC)[C@@H]2Oc5c(O)ccc6c5[C@@]23CCN(C)[C@@H]4C6)nn1`, the pA2 (usually the negative logarithm of the molar antagonist concentration that doubles the agonist concentration needed for the same response) at Mu-type opioid receptor [1] is 8.01; in assay [2], 6.37; in assay [3] it was less than 5.

Consider `CO[C@]12C=C[C@@]3([C@@H]4C(=O)N(CCCCCCNC(=O)OC(C)(C)C)C(=O)[C@@H]41)[C@H]1Cc4ccc(O)c5c4[C@@]3(CCN1C)[C@H]2O5`, for which, at Mu-type opioid receptor [4], the pKi (in general, the negative decadic logarithm of the Ki, by convention in mol/L) was 6.58.

The compound `CO[C@]12CC[C@@]3(C[C@@H]1C(=O)NCCCCCCN)[C@H]1Cc4ccc(O)c5c4[C@@]3(CCN1C)[C@H]2O5.Cl.Cl` gave a pKi on Mu-type opioid receptor [4] of 6.97.

For `CO[C@]12CC[C@@]3(C[C@@H]1C(=O)NCCCCCCNC(=O)CCN1C(=O)c4cccc5c(N)ccc(c45)C1=O)[C@H]1Cc4ccc(O)c5c4[C@@]3(CCN1C)[C@H]2O5`, the pA2 is 7.87 at Mu-type opioid receptor [1], 6.91 in assay [2] and less than 5 in assay [3].

`CO[C@]12C=C[C@@]3([C@@H]4C(=O)N(CCCCCCN)C(=O)[C@@H]41)[C@H]1Cc4ccc(O)c5c4[C@@]3(CCN1C)[C@H]2O5.Cl.Cl` came in with a pKi at Mu-type opioid receptor [4] of 5.69.

With `CCN1/C(=C/C=C/C=C/C2=[N+](CCCCCC(=O)NCCCCCCNC(=O)[C@H]3C[C@@]45CC[C@]3(OC)[C@@H]3Oc6c(O)ccc7c6[C@@]34CCN(C)[C@@H]5C7)c3ccc(S(=O)(=O)O)cc3C2(C)C)C(C)(C)c2cc(S(=O)(=O)O)ccc21`, the pA2 at Mu-type opioid receptor [1] was 7.31; in assay [2], 6.3; in assay [3] it was less than 5.

Compound `CO[C@]12C=C[C@@]3(C[C@@H]1C(=O)NCCCCCCNC(=O)OC(C)(C)C)[C@H]1Cc4ccc(O)c5c4[C@@]3(CCN1C)[C@H]2O5` yielded a pKi on Mu-type opioid receptor [4] of 8.13.

For the compound `CO[C@]12CC[C@@]3(C[C@@H]1C(=O)NCCCCCCNC(=O)CCCCCNC(=O)COc1ccc(/C=C/C4=[N+]5C(=Cc6ccc(-c7cccs7)n6[B-]5(F)F)C=C4)cc1)[C@H]1Cc4ccc(O)c5c4[C@@]3(CCN1C)[C@H]2O5`, the pA2 is 8.37 on Mu-type opioid receptor [1], 6.72 in assay [2] and less than 5 in assay [3].

Turning to `CO[C@]12CC[C@@]3(C[C@@H]1C(=O)NCCCCCCNC(=O)OC(C)(C)C)[C@H]1Cc4ccc(O)c5c4[C@@]3(CCN1C)[C@H]2O5`, the pKi on Mu-type opioid receptor [4] came to 8.66.

(Values after ChEMBL document CHEMBL3745681, “Synthesis, Biological Evaluation, and Utility of Fluorescent Ligands Targeting the μ-Opioid Receptor” (2015).)
